Source: US20230220021A1, “CYCLIC PEPTIDE INHIBITORS OF PSD-95 AND USES THEREOF” (University of Copenhagen, priority 2020, published 2023)

Tests used:
Type in all cases: binding
PSD-95-PDZ2 V229A = molecular target: T1, PSD-95-PDZ2 V229A (Homo sapiens, UniProt P78352, V229A); test: FP saturation assay against PSD-95-PDZ2 Ala mutant V229A; settings: V229A mutation; TAMRA probes
T1 construct: measured against recombinantly expressed PSD-95-PDZ2 Ala mutants in FP saturation experiments; 7xHis (N); made in house; host or cells: Escherichia coli B21 pLys
Text: (§1) Protein expression. The pRSET plasmids encoding the (7× His)-PSD-95-PDZ2 wild type and (7× His)-PSD-95-PDZ2-V178C sequences were obtained as described previously.^38 The DNA constructs encoding the PSD-95-PDZ2 mutants (K165A, K168A, F172A, F1721, S173A, N180A, T192A, K193A, H225A, E226A, V229A K233A) were produced using Phusion® site-directed mutagenesis kit on the pRSET plasmid of the wild type PSD-95-PDZ2 and with the primers listed in Table 1. The PSD-95-PDZ2 mutants were transformed and expressed as previously described,^38 in Escherichia coli B21 pLys cells at 37° C. and 0.5 mM isopropyl-D-thiogalactopyranoside (IPTG). […] Protein concentration was measured by NanoDrop 1000 and mass determination of proteins was analyzed using an Agilent 6410 triple quadrupole LC-MS with a Poroshell column, 300SB-C18 2.1×75 mm in a linear gradient of 5% to 60% B, using a binary solvent system [A: H2O/MeCN/TFA, 94.9/5/0.1 and B: H2O/MeCN/TFA, 5/94.9/0.1] with a flow of 0.75 mL min^−1. […] The proteins were analyzed using the following gradient: from 5% to 60% B for 4 min. and from 60 to 100% B from 4 to 4.5 min.
(§2) Fluorescence polarization (FP). […] Fluorescence polarization was measured using a Safire 2 plate reader. […] Then, the polarization was fitted into a one-site binding model using Prism software 8.0 (GraphPad), from which the Kd can be measured. […]

PSD-95-PDZ2 H225A = molecular target: T2, PSD-95-PDZ2 H225A (Homo sapiens, UniProt P78352, H225A); test: FP saturation assay against PSD-95-PDZ2 Ala mutant H225A; settings: H225A mutation; TAMRA probes
T2 construct: measured against recombinantly expressed PSD-95-PDZ2 Ala mutants in FP saturation experiments; 7xHis (N); made in house; host or cells: Escherichia coli B21 pLys
Text: as §1, §2

PSD-95-PDZ2 K165A = molecular target: T3, PSD-95-PDZ2 K165A (Homo sapiens, UniProt P78352, K165A); test: FP saturation assay against PSD-95-PDZ2 Ala mutant K165A; settings: K165 mutation; TAMRA probes
T3 construct: measured against recombinantly expressed PSD-95-PDZ2 Ala mutants in FP saturation experiments; 7xHis (N); made in house; host or cells: Escherichia coli B21 pLys
Text: as §1, §2

CC[C@H](C)[C@@H]1NC(=O)[C@H]([C@@H](C)O)NC(=O)[C@H](CCCCN)NC(=O)[C@@H]2CCCN2C(=O)[C@H]([C@@H](C)O)NC(=O)CNC(=O)[C@H](CC(=O)O)NC(=O)CNC(=O)[C@H]([C@@H](C)O)NC(=O)[C@H](Cc2ccccc2)NC(=O)[C@H]([C@@H](C)O)NC(=O)[C@H]([C@@H](C)O)NC(=O)[C@H](CCC(=O)O)NC(=O)[C@H](CC(C)C)NC(=O)[C@H](Cc2c[nH]cn2)NC(=O)[C@H]([C@@H](C)O)NC(=O)[C@H](CSC2CC(=O)N(CCNC(=O)c3ccc4c(c3)C(=O)OC43c4ccc(N(C)C)cc4Oc4cc(N(C)C)ccc43)C2=O)NC(=O)CNC(=O)[C@H]2CCCN2C(=O)[C@H](CCC(N)=O)NC(=O)[C@H]([C@@H](C)O)NC(=O)[C@H](C(C)C)NC(=O)[C@H](CCCNC(=N)N)NC1=O (stereo partly drawn) [cyclic nNOS TAM RA probe]
fold loss in affinity (Kd mutant normalized to PSD-95-PDZ2 WT) (PSD-95-PDZ2 V229A): 6 fold | fold decrease in affinity (Kd mutant normalized to PSD-95-PDZ2 WT) (PSD-95-PDZ2 H225A): completely abolished | fold loss in affinity (Kd mutant normalized to PSD-95-PDZ2 WT) (PSD-95-PDZ2 K165A): 4 fold
